Assay results from PMC5378566, “Design, synthesis and evaluation in an LPS rodent model of neuroinflammation of a novel ^18F-labelled PET tracer targeting P2X7” (EJNMMI Research, 2017).

Key:
rat P2X7 [1] = molecular target: T1, rat P2X7 (Rattus norvegicus, UniProt Q64663); experiment: Calcium influx (Fura-2/AM) inhibition assay, BzATP-activated; type: cell-based; design: expressed in transfected cells; settings: Rat isoform
T1 sequence (Q64663 1-595): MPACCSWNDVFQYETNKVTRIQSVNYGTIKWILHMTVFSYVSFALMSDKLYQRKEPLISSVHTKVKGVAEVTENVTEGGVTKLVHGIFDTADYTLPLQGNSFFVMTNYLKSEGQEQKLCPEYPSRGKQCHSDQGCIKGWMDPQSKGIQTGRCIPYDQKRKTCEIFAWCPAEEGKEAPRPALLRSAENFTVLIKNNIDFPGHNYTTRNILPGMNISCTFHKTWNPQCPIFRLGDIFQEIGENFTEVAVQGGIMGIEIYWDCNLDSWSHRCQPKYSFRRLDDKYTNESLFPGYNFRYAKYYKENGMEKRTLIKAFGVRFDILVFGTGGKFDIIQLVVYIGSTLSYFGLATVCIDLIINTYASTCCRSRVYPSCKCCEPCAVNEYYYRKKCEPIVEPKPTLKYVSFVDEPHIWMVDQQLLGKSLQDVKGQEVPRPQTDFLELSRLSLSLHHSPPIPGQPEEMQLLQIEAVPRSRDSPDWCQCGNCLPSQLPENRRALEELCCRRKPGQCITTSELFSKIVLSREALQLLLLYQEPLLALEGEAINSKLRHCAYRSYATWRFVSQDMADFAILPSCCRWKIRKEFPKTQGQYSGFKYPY

rat P2X7 [2] = molecular target: T1, rat P2X7; settings: Rat isoform, literature value from similar assay format; cited from earlier work

COc1ccc(CC(=O)NC(NC(=NC#N)Nc2cccc3ncccc23)C(C)(C)C)cc1OC (stereo not drawn) [A-740003, N-(1-{[(Cyanoimino)(5-quinolinylamino)methyl]amino}-2,2-dimethylpropyl)-2-(3,4-dimethoxyphenyl)acetamide, reference compound]
Ki (rat P2X7 [1]; Cheng–Prusoff from pIC50 assuming competitive inhibition, BzATP 100 μM): 0.00867 µM | IC50 (rat P2X7 [1]; P2X7-HEK293, [BzATP] 100 μM): 1.74 µM | Lit. pIC50 (rat P2X7 [2]): 7.75 [32]
